Drawing on ChEMBL document CHEMBL4699600, “Design, Synthesis, and Biological Evaluation of Covalent Inhibitors of Focal Adhesion Kinase (FAK) against Human Malignant Glioblastoma” (J Med Chem, 2020), this text covers Kinact for three compounds.

Sequences of proteins named here, by UniProt entry; tags and fusion partners are left off.
UniProt Q05397, whole entry, looked up: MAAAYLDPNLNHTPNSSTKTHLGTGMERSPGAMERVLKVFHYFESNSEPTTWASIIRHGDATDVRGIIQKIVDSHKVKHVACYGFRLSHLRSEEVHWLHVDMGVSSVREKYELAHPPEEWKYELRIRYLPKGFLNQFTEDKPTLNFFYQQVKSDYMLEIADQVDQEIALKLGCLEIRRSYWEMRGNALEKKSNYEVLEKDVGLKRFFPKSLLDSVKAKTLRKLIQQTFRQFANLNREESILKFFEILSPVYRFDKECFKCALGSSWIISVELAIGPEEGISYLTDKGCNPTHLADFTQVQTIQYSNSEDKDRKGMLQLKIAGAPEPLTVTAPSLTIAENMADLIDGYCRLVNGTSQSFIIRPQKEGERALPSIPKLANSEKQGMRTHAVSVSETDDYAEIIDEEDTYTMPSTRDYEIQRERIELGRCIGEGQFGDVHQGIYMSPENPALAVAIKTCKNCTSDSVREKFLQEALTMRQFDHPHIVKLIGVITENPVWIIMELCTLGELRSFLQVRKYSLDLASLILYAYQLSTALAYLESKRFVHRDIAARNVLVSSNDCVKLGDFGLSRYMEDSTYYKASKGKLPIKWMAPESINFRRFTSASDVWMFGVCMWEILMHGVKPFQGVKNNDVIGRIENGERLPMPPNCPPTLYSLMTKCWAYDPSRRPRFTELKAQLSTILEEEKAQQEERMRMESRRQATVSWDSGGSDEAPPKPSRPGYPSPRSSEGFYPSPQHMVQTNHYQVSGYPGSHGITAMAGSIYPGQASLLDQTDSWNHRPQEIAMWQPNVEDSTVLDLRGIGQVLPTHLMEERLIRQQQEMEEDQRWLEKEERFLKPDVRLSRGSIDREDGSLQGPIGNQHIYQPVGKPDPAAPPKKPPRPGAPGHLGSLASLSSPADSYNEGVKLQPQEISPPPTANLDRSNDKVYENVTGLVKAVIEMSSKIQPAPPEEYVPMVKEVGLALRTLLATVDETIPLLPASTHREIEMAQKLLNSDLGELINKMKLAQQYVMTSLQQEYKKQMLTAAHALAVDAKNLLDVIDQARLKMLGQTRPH

This test deals with Focal adhesion kinase 1 (Homo sapiens, UniProt Q05397). The following applies: Sf9, time min 2-120.

The structures appear in SMILES notation.

Consider `CNC(=O)c1ccccc1Nc1nc(Nc2ccc(CNc3c(NCCNC(=O)/C(C#N)=C/C(C)C)c(=O)c3=O)cc2)ncc1Cl`, for which the Kinact was found to be 0.25 min⁻¹. Then `C=CC(=O)NCCNc1c(NCc2ccc(Nc3ncc(Cl)c(Nc4ccccc4C(=O)NC)n3)cc2)c(=O)c1=O`, with 0.16 min⁻¹. In the case of `C=CC(=O)NCCNc1c(NCc2ccc(Nc3ncc(C(F)(F)F)c(Nc4ccccc4C(=O)NC)n3)cc2)c(=O)c1=O` it was 0.047 min⁻¹.
